# Key:
# [1] = organism: Homo sapiens; assay: Ratio of IC50 for human COX1 to IC50 for human COX2
# [2] = organism: Homo sapiens; assay: Ratio of IC50 for human COX1 to IC50 for human COX2 in human whole blood; format: tissue-based
Structure (SMILES),Ratio IC50 [1],Ratio IC50 [2]
CS(=O)(=O)c1ccc(-c2nc(NCc3ccccc3)cc(C(F)(F)F)n2)cc1,> 71,1410
CC(C)(C)c1cc(NCc2cccs2)nc(-c2ccc(S(C)(=O)=O)cc2)n1,,> 322
CC(C)CNc1cc(C(F)(F)F)nc(-c2ccc(S(C)(=O)=O)cc2)n1,> 13,> 127
COCCOc1cc(NCc2cccs2)nc(-c2ccc(S(C)(=O)=O)cc2)n1,,> 41800
CS(=O)(=O)c1ccc(-c2nc(NCc3cccs3)cc(C(F)(F)F)n2)cc1,> 4460,10700
CC(C)c1cc(NCc2cccs2)nc(-c2ccc(S(C)(=O)=O)cc2)n1,,> 1020
CS(=O)(=O)c1ccc(-c2nc(NCc3ccc(Cl)s3)cc(C(F)(F)F)n2)cc1,,> 18600
CCN(CC)c1cc(NCc2cccs2)nc(-c2ccc(S(C)(=O)=O)cc2)n1,,> 1640

# Source: ChEMBL document CHEMBL1143107 (Bioorg Med Chem, 2008)
